Consider three compounds from patent publication US11224601B1, “Compounds that inhibits MCL-1 protein” (priority 2017, dated 2022).

Sequences of proteins named here, by UniProt entry; tags and fusion partners are left off. Residues count along the entry.
UniProt Q07820, 171-327: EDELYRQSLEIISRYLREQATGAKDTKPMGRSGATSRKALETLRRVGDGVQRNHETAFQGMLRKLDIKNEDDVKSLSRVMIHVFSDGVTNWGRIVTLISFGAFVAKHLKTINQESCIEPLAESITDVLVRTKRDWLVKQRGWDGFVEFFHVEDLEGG

What is called IC50 is the concentration that inhibits the measured activity by half.

For this experiment, the target named is recombinant human Mcl-1 (Mcl-1/Bim interaction) (Homo sapiens (Human), UniProt Q07820). Nature of the experiment: biochemical. The format is binding. Conditions: cell free Mcl-1:Bim TR-FRET. (TR-FRET usually uses a lanthanide donor and a delayed reading to cut background.)

Read-outs that look alike come from different tables or passages of the source.

As for `C[C@@H]1[C@@H](C)C/C=C/[C@@](O)(CN2CCOCC2)[C@@H]2CC[C@H]2CN2C[C@@]3(CCCc4cc(Cl)ccc43)COc3ccc(cc32)C(=O)NS1(=O)=O` (single isomer, unassigned) [Example 194], the half-inhibitory concentration (IC50) (Mcl-1 HTRF IC50 (μM)) worked out at 0.148 nM.

For the compound `CO[C@]1(CN2C[C@H]3CCCCN3CC2=O)/C=C/C[C@H](C)[C@@H](C)S(=O)(=O)NC(=O)c2ccc3c(c2)N(C[C@@H]2CC[C@H]21)C[C@@]1(CCCc2cc(Cl)ccc21)CO3` [Example 154, (1S,3′R,6′R,7′R,8′E,11′S,12′R)-6-chloro-7′-methoxy-11′,12′-dimethyl-7′-(((9aR)-3-oxooctahydro-2H-pyrido[1,2-a]pyrazin-2-yl)methyl)-3,4-dihydro-2H,15′H-spiro[naphthalene-1,22′-[20]oxa[13]thia[1,14]diazatetracyclo[14.7.2.0˜3,6˜.0˜19,24˜]pentacosa[8,16,18,24]tetraen]-15′-one 13′,13′-dioxide], the IC50 (read-out: Mcl-1 HTRF IC50) amounted to 0.197 nM.

“(1S,3′R,6′R,7′R,8′E,11′S,12′R)-6-chloro-7′-((9aS)-hexahydropyrazino[2,1-c][1,4]oxazin-8(1H)-ylmethyl)-7′-methoxy-12′-(2-methoxyethyl)-11′-methyl-3,4-dihydro-2H,15′H-spiro[naphthalene-1,22′-[20]oxa[13]thia[1,14]diazatetracyclo[14.7.2.0˜3,6˜.0˜19,24˜]pentacosa[8,16,18,24]tetraen]-15′-one 13,13′-dioxide [Example 11]”: the IC50 (read-out: Mcl-1 HTRF IC50) was found to be 0.098 nM.
